How the values were obtained:
[1] = In vivo biodistribution of 111In-labeled test articles, SPECT/CT, kidney; settings: FIG. 1; Nectin-4 charge variant conjugates; 4 and 24 hours post-administration
[2] = In vitro metabolic stability in mouse plasma
[3] = Radionuclide incorporation of DOTA-compounds (thin-layer chromatography); settings: Indium-111
Nectin-4 [4] = target: T1, Nectin-4 (Homo sapiens, UniProt Q96NY8); experiment: Surface plasmon resonance binding, Nectin-4; settings: read-out: SPR KD, Table 4B
Nectin-4 [5] = target: T1, Nectin-4; experiment: DELFIA whole cell binding assay (KD, Ki), Nectin-4; settings: read-out: DELFIA Ki, Table 4B

By UniProt entry, the sequences of proteins in these tests, tags left out. Residues count along the entry.
UniProt Q96NY8, 32-510 limits assumed: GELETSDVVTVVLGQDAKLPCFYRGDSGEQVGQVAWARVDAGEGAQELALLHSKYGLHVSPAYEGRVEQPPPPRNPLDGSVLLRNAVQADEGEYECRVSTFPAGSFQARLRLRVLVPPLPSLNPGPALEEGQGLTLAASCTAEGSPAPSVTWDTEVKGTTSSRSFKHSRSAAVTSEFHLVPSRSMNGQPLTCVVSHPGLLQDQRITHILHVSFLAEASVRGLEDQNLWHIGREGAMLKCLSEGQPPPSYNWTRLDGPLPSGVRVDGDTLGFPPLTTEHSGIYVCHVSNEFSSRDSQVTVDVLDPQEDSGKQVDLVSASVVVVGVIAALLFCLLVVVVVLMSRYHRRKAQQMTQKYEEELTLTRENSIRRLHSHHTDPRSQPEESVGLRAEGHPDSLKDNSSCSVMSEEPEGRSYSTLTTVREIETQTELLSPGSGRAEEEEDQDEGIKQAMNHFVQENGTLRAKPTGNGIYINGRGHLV

Row | kidney retention [1] | mPlasma (t½ hr) [2] [h] | % radionuclide incorporation [3] [%] | Kd (Nectin-4 [4]) [nM] | Ki (Nectin-4 [5]) [nM] | Compound
1 | Reduced levels of kidney retention | >12 | 99 |  |  | CC[C@H](C)[C@@H]1NC(=O)[C@H](CC(=O)O)NC(=O)CNC(=O)CNC(=O)[C@H](CCCNC(=N)N)NC(=O)[C@H](CC(C)C)NC(=O)[C@H](CCCNC(=N)N)NC(=O)[C@H](CCCCN)NC(=O)[C@H](CC(C)C)NC(=O)[C@H](C)NC(=O)[C@H]([C@@H](C)O)NC(=O)[C@H](Cc2ccccc2)NC(=O)[C@H](Cc2ccccc2)NC(=O)[C@H](CCC(=O)O)NC(=O)[C@H](CCC(=O)O)NC(=O)[C@H](CC(=O)O)NC(=O)[C@H](Cc2ccc(O)cc2)NC(=O)[C@H](CCC(=O)O)NC(=O)[C@@H](NC(=O)CCOCCOCCOCCOCCNC(=O)CN2CCN(CC(=O)O)CCN(CC(=O)O)CCN(CC(=O)O)CC2)CSSC[C@@H]2NC(=O)[C@H](CC(C)C)NC(=O)[C@H](CCCCNC(C)=O)NC(=O)[C@@H]3CCCN3C(=O)[C@H](C(C)C)NC(=O)[C@H](CCCCNC(C)=O)NC(=O)[C@H](CCCCNC(C)=O)NC(=O)[C@H](Cc3ccccc3)NC(=O)[C@H](CCCCNC(C)=O)NC(=O)[C@H](CCCCNC(C)=O)NC(=O)[C@H](CCCCNC(C)=O)NC(=O)[C@H]([C@@H](C)CC)NC(=O)[C@H](Cc3ccc(O)cc3)NC(=O)[C@H](Cc3ccc(O)cc3)NC(=O)[C@H](CSSC[C@@H](C(N)=O)NC(=O)CNC(=O)[C@H](CC(C)C)NC(=O)[C@H](CCCCN)NC(=O)[C@H](CC(=O)O)NC(=O)[C@H](CC(C)C)NC(=O)[C@H]([C@@H](C)CC)NC(=O)[C@H](CCC(=O)O)NC(=O)[C@H](CCC(=O)O)NC(=O)[C@H]([C@@H](C)CC)NC2=O)NC1=O
2 | Reduced levels of kidney retention | >12 | 98 |  |  | CC[C@H](C)[C@@H]1NC(=O)[C@H](CC(=O)O)NC(=O)CNC(=O)CNC(=O)[C@H](CCCNC(N)=O)NC(=O)[C@H](CC(C)C)NC(=O)[C@H](CCCNC(N)=O)NC(=O)[C@H](CCCCNC(C)=O)NC(=O)[C@H](CC(C)C)NC(=O)[C@H](C)NC(=O)[C@H]([C@@H](C)O)NC(=O)[C@H](Cc2ccccc2)NC(=O)[C@H](Cc2ccccc2)NC(=O)[C@H](CCC(=O)O)NC(=O)[C@H](CCC(=O)O)NC(=O)[C@H](CC(=O)O)NC(=O)[C@H](Cc2ccc(O)cc2)NC(=O)[C@H](CCC(=O)O)NC(=O)[C@@H](NC(=O)CCOCCOCCOCCOCCNC(=O)CN2CCN(CC(=O)O)CCN(CC(=O)O)CCN(CC(=O)O)CC2)CSSC[C@@H]2NC(=O)[C@H](CC(C)C)NC(=O)[C@H](CCCCN)NC(=O)[C@@H]3CCCN3C(=O)[C@H](C(C)C)NC(=O)[C@H](CCCCN)NC(=O)[C@H](CCCCN)NC(=O)[C@H](Cc3ccccc3)NC(=O)[C@H](CCCCN)NC(=O)[C@H](CCCCN)NC(=O)[C@H](CCCCN)NC(=O)[C@H]([C@@H](C)CC)NC(=O)[C@H](Cc3ccc(O)cc3)NC(=O)[C@H](Cc3ccc(O)cc3)NC(=O)[C@H](CSSC[C@@H](C(N)=O)NC(=O)CNC(=O)[C@H](CC(C)C)NC(=O)[C@H](CCCCNC(C)=O)NC(=O)[C@H](CC(=O)O)NC(=O)[C@H](CC(C)C)NC(=O)[C@H]([C@@H](C)CC)NC(=O)[C@H](CCC(=O)O)NC(=O)[C@H](CCC(=O)O)NC(=O)[C@H]([C@@H](C)CC)NC2=O)NC1=O
3 |  |  |  | 2.69 | 10 | CCCC[C@H](NC(=O)[C@@H](NC(=O)[C@H](CCC(N)=O)NC(=O)CNC(=O)[C@H](Cc1c[nH]cn1)NC(=O)[C@@H](NC(=O)[C@H](CC(C)C)NC(=O)[C@H](CC(N)=O)NC(=O)[C@@H]1CCCN1C(=O)[C@H](CC(C)C)NC(=O)[C@H](Cc1c[nH]c2ccccc12)NC(=O)[C@@H](NC(=O)[C@@H](NC(=O)[C@H](CCC(=O)O)NC(=O)[C@H](CO)NC(=O)[C@H](CC(C)C)NC(=O)[C@H](C)NC(=O)[C@H](C)NC(=O)[C@@H](NC(=O)[C@H](CCCCN)NC(=O)[C@H](CCC(=O)O)NC(=O)[C@H](CCCCN)NC(=O)[C@H](C)NC(=O)[C@H](Cc1ccc(O)cc1)NC(=O)[C@H](CCCCN)NC(=O)[C@H](C)NC(=O)[C@H](CCC(=O)O)NC(=O)[C@H](C)NC(=O)CCOCCOCCOCCOCCNC(=O)CN(C)C(=O)CNC(=O)CNC(=O)CCOCCOCCOCCOCCNC(=O)CN1CCN(CC(=O)O)CCN(CC(=O)O)CCN(CC(=O)O)CC1)[C@@H](C)CC)[C@@H](C)CC)[C@@H](C)CC)[C@@H](C)O)[C@@H](C)CC)C(=O)N[C@@H](C)C(=O)N[C@@H](Cc1ccccc1)C(=O)N[C@H](C(=O)N[C@@H](C)C(=O)N[C@@H](C)C(=O)N[C@@H](CC(C)C)C(=O)N[C@@H](CC(N)=O)C(=O)N[C@@H](CC(=O)O)C(=O)N[C@@H](CC(=O)O)C(=O)N1CCC[C@H]1C(=O)N[C@@H](CO)C(=O)N[C@@H](CCC(N)=O)C(=O)N[C@@H](CO)C(=O)N[C@@H](CO)C(=O)N[C@@H](CCC(=O)O)C(=O)N[C@@H](CC(C)C)C(=O)N[C@@H](CC(C)C)C(=O)N[C@@H](CO)C(=O)N[C@@H](CCC(=O)O)C(=O)N[C@@H](C)C(=O)N[C@@H](CCCCN)C(=O)N[C@@H](CCCCN)C(=O)N[C@@H](CC(C)C)C(=O)N[C@@H](CC(N)=O)C(=O)N[C@@H](CC(=O)O)C(=O)N[C@@H](CO)C(=O)N[C@@H](CCC(N)=O)C(=O)N[C@@H](C)C(=O)N1CCC[C@H]1C(=O)N[C@@H](CCCCN)C(N)=O)[C@@H](C)CC.[In+3]

Source: patent US20260382774A1, “DECREASED RETENTION OF MINIPROTEINS IN KIDNEY” (published 2026)
